Data reported in patent publication US9302989B2 (priority 2010, dated 2016).

Sequences of proteins named here, by UniProt entry; tags and fusion partners are left off. A change or cut given only in a name is not applied to a line headed by its entry.
UniProt P43490: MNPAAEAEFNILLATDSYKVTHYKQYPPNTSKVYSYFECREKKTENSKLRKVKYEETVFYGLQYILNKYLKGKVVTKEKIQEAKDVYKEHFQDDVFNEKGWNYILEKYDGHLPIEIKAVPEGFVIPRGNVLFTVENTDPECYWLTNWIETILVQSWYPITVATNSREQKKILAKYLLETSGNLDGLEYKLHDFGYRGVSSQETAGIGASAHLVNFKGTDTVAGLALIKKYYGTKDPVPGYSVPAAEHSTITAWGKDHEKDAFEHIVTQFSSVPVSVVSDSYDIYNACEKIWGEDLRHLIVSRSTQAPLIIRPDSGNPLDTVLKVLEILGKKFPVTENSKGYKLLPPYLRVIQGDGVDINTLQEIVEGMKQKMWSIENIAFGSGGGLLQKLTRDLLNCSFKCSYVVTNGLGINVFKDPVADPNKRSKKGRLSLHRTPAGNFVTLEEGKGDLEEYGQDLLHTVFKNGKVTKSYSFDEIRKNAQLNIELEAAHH

Each compound was assayed against NAMPT (Homo sapiens (Human), UniProt P43490). Details: read-out: TR-FRET Binding IC50 (μM) probe 1.
With COc1ccc(CC(=O)N2CCN(c3ccc(NC(=O)N4Cc5ccccc5C4)cc3)CC2)cc1OC [Example 524, N-(4-{4-[(3,4-dimethoxyphenyl)acetyl]piperazin-1-yl}phenyl)-1,3-dihydro-2H-isoindole-2-carboxamide] the IC50 was 0.115 µM. O=C(Nc1ccc(Cl)cn1)c1ccc(NC(=O)N2Cc3ccccc3C2)cc1 [Example 413, N-{4-[(5-chloropyridin-2-yl)carbamoyl]phenyl}-1,3-dihydro-2H-isoindole-2-carboxamide] showed an IC50 of 2.01 µM. In the case of O=C(Nc1ccc(C(=O)N2CCN(c3cccnc3)CC2)cc1)N1Cc2ccccc2C1 [Example 72, N-(4-{[4-(pyridin-3-yl)piperazin-1-yl]carbonyl}phenyl)-1,3-dihydro-2H-isoindole-2-carboxamide], the IC50 is reported as 0.0258 µM. Work on O=C1CC[C@H](C(=O)N2CCN(c3ccc(NC(=O)N4Cc5ccccc5C4)cc3)CC2)N1 [Example 499, N-{4-[4-(5-oxo-D-prolyl)piperazin-1-yl]phenyl}-1,3-dihydro-2H-isoindole-2-carboxamide] yielded an IC50 of 0.806 µM. O=C(Nc1ccc(C(=O)N2CCN(c3ccc(C(F)(F)F)cc3)CC2)cc1)N1Cc2ccccc2C1 [Example 216, N-[4-({4-[4-(trifluoromethyl)phenyl]piperazin-1-yl}carbonyl)phenyl]-1,3-dihydro-2H-isoindole-2-carboxamide] showed an IC50 of 0.271 µM. For O=C(Nc1ccc(-c2c[nH]c(=O)c3ccccc23)cc1)N1Cc2ccc(CN3CCOCC3)cc2C1 [Example 381, 5-(morpholin-4-ylmethyl)-N-[4-(1-oxo-1,2-dihydroisoquinolin-4-yl)phenyl]-1,3-dihydro-2H-isoindole-2-carboxamide], the IC50 was 0.547 µM. Compound O=C(NCCCc1ccccc1)c1cnc(NC(=O)N2Cc3ccccc3C2)s1 [Example 371, N-{5-[(3-phenylpropyl)carbamoyl]-1,3-thiazol-2-yl}-1,3-dihydro-2H-isoindole-2-carboxamide] has an IC50 of 0.0395 µM. Work on O=C(NCCCO)c1ccc(NC(=O)N2Cc3ccccc3C2)cc1 [Example 205, N-{4-[(3-hydroxypropyl)carbamoyl]phenyl}-1,3-dihydro-2H-isoindole-2-carboxamide] yielded an IC50 of 0.203 µM. O=C(Nc1ccc(N2CCN(C(=O)c3cccnc3)CC2)cc1)N1Cc2ccccc2C1 [Example 530, N-{4-[4-(pyridin-3-ylcarbonyl)piperazin-1-yl]phenyl}-1,3-dihydro-2H-isoindole-2-carboxamide] was tested, and the IC50 was 0.124 µM. O=C(Nc1ccc(C(=O)N2CCN(c3ccccn3)CC2)cc1)N1Cc2cccc(Cl)c2C1 [Example 64, 4-chloro-N-(4-{[4-(pyridin-2-yl)piperazin-1-yl]carbonyl}phenyl)-1,3-dihydro-2H-isoindole-2-carboxamide] was tested, and the IC50 was 0.0237 µM. CCC(CC)NC(=O)c1ccc(NC(=O)N2Cc3ccccc3C2)cc1 [Example 231, N-[4-(pentan-3-ylcarbamoyl)phenyl]-1,3-dihydro-2H-isoindole-2-carboxamide] showed an IC50 of 0.414 µM. In the case of CCCC(=O)N1CC=C(c2ccc(NC(=O)N3Cc4ccccc4C3)nc2)CC1 [Example 452, N-(1′-butyryl-1′,2′,3′,6′-tetrahydro-3,4′-bipyridin-6-yl)-1,3-dihydro-2H-isoindole-2-carboxamide], the IC50 is reported as 0.0512 µM. O=C(NCc1cc(F)cc(C(F)(F)F)c1)c1ccc(NC(=O)N2Cc3ccccc3C2)cc1 [Example 34, N-(4-{[3-fluoro-5-(trifluoromethyl)benzyl]carbamoyl}phenyl)-1,3-dihydro-2H-isoindole-2-carboxamide] showed an IC50 of 0.0151 µM. CCCC(=O)N1CC=C(c2ccc(NC(=O)N3Cc4ccccc4C3)cc2)CC1 [Example 330, N-[4-(1-butyryl-1,2,3,6-tetrahydropyridin-4-yl)phenyl]-1,3-dihydro-2H-isoindole-2-carboxamide] showed an IC50 of 0.00618 µM. CCCNC(=O)c1ccc(NC(=O)N2Cc3ccc(N)cc3C2)cc1 [Example 274, 5-amino-N-[4-(propylcarbamoyl)phenyl]-1,3-dihydro-2H-isoindole-2-carboxamide] showed an IC50 of 1.03 µM. Work on CN(CC1OCCO1)C(=O)c1ccc(NC(=O)N2Cc3ccccc3C2)cc1 [Example 233, N-{4-[(1,3-dioxolan-2-ylmethyl)(methyl)carbamoyl]phenyl}-1,3-dihydro-2H-isoindole-2-carboxamide] yielded an IC50 of 0.43 µM. Compound O=C(NCc1ccoc1)c1ccc(NC(=O)N2Cc3ccccc3C2)cc1 [Example 83, N-{4-[(3-furylmethyl)carbamoyl]phenyl}-1,3-dihydro-2H-isoindole-2-carboxamide] has an IC50 of 0.0306 µM. C[C@H](O)CNC(=O)c1ccc(NC(=O)N2Cc3ccccc3C2)cc1 [Example 172, N-(4-{[(2S)-2-hydroxypropyl]carbamoyl}phenyl)-1,3-dihydro-2H-isoindole-2-carboxamide] was tested, and the IC50 was 0.111 µM. For O=C(Nc1ccc(C(=O)N2CCC(C(F)(F)F)CC2)cc1)N1Cc2ccccc2C1 [Example 160, N-(4-{[4-(trifluoromethyl)piperidin-1-yl]carbonyl}phenyl)-1,3-dihydro-2H-isoindole-2-carboxamide], the IC50 was 0.0861 µM. With O=C(NCCc1c[nH]c2ccccc12)c1ccc(NC(=O)N2Cc3ccccc3C2)cc1 [Example 97, N-(4-{[2-(1H-indol-3-yl)ethyl]carbamoyl}phenyl)-1,3-dihydro-2H-isoindole-2-carboxamide] the IC50 was 0.037 µM. O=C(NC[C@@H]1CCCO1)c1ccc(NC(=O)N2Cc3ccncc3C2)cc1 [Example 426, N-(4-{[(2S)-tetrahydrofuran-2-ylmethyl]carbamoyl}phenyl)-1,3-dihydro-2H-pyrrolo[3,4-c]pyridine-2-carboxamide] gave an IC50 of 0.0104 µM. In the case of O=C(Nc1ccc(C(=O)N2CCC3(CC2)OCCO3)cc1)N1Cc2ccccc2C1 [Example 138, N-[4-(1,4-dioxa-8-azaspiro[4.5]dec-8-ylcarbonyl)phenyl]-1,3-dihydro-2H-isoindole-2-carboxamide], the IC50 is reported as 0.0632 µM. In the case of O=C(Nc1ccc(N2CCN(C(=O)c3ccccn3)CC2)cc1)N1Cc2ccccc2C1 [Example 529, N-{4-[4-(pyridin-2-ylcarbonyl)piperazin-1-yl]phenyl}-1,3-dihydro-2H-isoindole-2-carboxamide], the IC50 is reported as 0.103 µM. With CCCn1cc(-c2ccc(NC(=O)N3Cc4ccccc4C3)cn2)cn1 [Example 325, N-[6-(1-propyl-1H-pyrazol-4-yl)pyridin-3-yl]-1,3-dihydro-2H-isoindole-2-carboxamide] the IC50 was 0.0987 µM. O=C(Nc1ccc(C(=O)N2CCN(CC3CCCCC3)CC2)cc1)N1Cc2ccccc2C1 [Example 198] was tested, and the IC50 was 0.179 µM. For O=C(Nc1ccc(C(=O)N2CCN(c3ccccn3)CC2)cc1)N1Cc2ccc(F)cc2C1 [Example 22, 5-fluoro-N-(4-{[4-(pyridin-2-yl)piperazin-1-yl]carbonyl}phenyl)-1,3-dihydro-2H-isoindole-2-carboxamide], the IC50 was 0.0116 µM. For O=C(Nc1ccc(C(=O)N2CCN(c3cnccn3)CC2)cc1)N1Cc2ccc(C(F)(F)F)cc2C1 [Example 89, N-(4-{[4-(pyrazin-2-yl)piperazin-1-yl]carbonyl}phenyl)-5-(trifluoromethyl)-1,3-dihydro-2H-isoindole-2-carboxamide], the IC50 was 0.0334 µM. COCCN(C)C(=O)c1ccc(NC(=O)N2Cc3ccccc3C2)cc1 [Example 244, N-{4-[(2-methoxyethyl)(methyl)carbamoyl]phenyl}-1,3-dihydro-2H-isoindole-2-carboxamide] showed an IC50 of 0.574 µM. Work on C=Cc1ccc2c(c1)CN(C(=O)Nc1ccc(C(=O)NCCC)cc1)C2 [Example 424, N-[4-(propylcarbamoyl)phenyl]-5-vinyl-1,3-dihydro-2H-isoindole-2-carboxamide] yielded an IC50 of 0.0826 µM. For CC(C)n1cc(NC(=O)c2ccc(NC(=O)N3Cc4ccccc4C3)cc2)cn1 [Example 154, N-{4-[(1-isopropyl-1H-pyrazol-4-yl)carbamoyl]phenyl}-1,3-dihydro-2H-isoindole-2-carboxamide], the IC50 was 0.0813 µM. In the case of O=C(Nc1ccc(C(=O)N2CCCC[C@H]2CCO)cc1)N1Cc2ccccc2C1 [Example 439, N-(4-{[(2S)-2-(2-hydroxyethyl)piperidin-1-yl]carbonyl}phenyl)-1,3-dihydro-2H-isoindole-2-carboxamide], the IC50 is reported as 1.69 µM. Compound O=C(Nc1ccc(CO)cc1)c1ccc(NC(=O)N2Cc3ccccc3C2)cc1 [Example 152, N-(4-{[4-(hydroxymethyl)phenyl]carbamoyl}phenyl)-1,3-dihydro-2H-isoindole-2-carboxamide] has an IC50 of 0.0759 µM. Work on O=C(Nc1ccc(C(=O)N2CCC(F)C2)cc1)N1Cc2ccccc2C1 (stereo not shown) [Example 265, N-{4-[(3-fluoropyrrolidin-1-yl)carbonyl]phenyl}-1,3-dihydro-2H-isoindole-2-carboxamide] yielded an IC50 of 2.24 µM. CC(C)C(=O)N1CCC(c2ccc(NC(=O)N3Cc4ccccc4C3)cc2)CC1 [Example 406, N-[4-(1-isobutyrylpiperidin-4-yl)phenyl]-1,3-dihydro-2H-isoindole-2-carboxamide] gave an IC50 of 0.011 µM. O=C(NCC1CCCC1)c1ccc(NC(=O)N2Cc3ccc(F)cc3C2)cc1 [Example 4] was tested, and the IC50 was 0.00371 µM. CCCn1cc(-c2ccc(NC(=O)N3Cc4ccccc4C3)cc2)cn1 [Example 322, N-[4-(1-propyl-1H-pyrazol-4-yl)phenyl]-1,3-dihydro-2H-isoindole-2-carboxamide] was tested, and the IC50 was 0.0255 µM. In the case of C[C@@H](NC(=O)c1ccc(NC(=O)N2Cc3ccccc3C2)cc1)c1cccc(C#N)c1 [Example 173, N-(4-{[(1R)-1-(3-cyanophenyl)ethyl]carbamoyl}phenyl)-1,3-dihydro-2H-isoindole-2-carboxamide], the IC50 is reported as 0.115 µM. For O=C(NCc1ccc2c(c1)OCO2)c1ccc(NC(=O)N2Cc3ccccc3C2)cc1 [Example 70, N-{4-[(1,3-benzodioxol-5-ylmethyl)carbamoyl]phenyl}-1,3-dihydro-2H-isoindole-2-carboxamide], the IC50 was 0.0248 µM. In the case of CNC(=O)CCCCCNC(=O)N1Cc2ccccc2C1 [Example 360, N-[6-(methylamino)-6-oxohexyl]-1,3-dihydro-2H-isoindole-2-carboxamide], the IC50 is reported as 0.239 µM. For O=C(Nc1ccc(C(=O)N2CCN(c3ncccn3)CC2)cc1)N1Cc2ccc(F)cc2C1 [Example 19, 5-fluoro-N-(4-{[4-(pyrimidin-2-yl)piperazin-1-yl]carbonyl}phenyl)-1,3-dihydro-2H-isoindole-2-carboxamide], the IC50 was 0.011 µM.
